Here are results for three molecules from patent US8895549B2, “Aminoalcohol substituted 2,3-dihydroimidazo[1,2-c]quinazoline derivatives useful for treating hyper-proliferative disorders and diseases associated with angiogenesis” (Bayer Intellectual Property GmbH, priority 2010, dated 2014).

Amino acid sequences for entries named in this document (tags omitted). A change or cut given only in a name is not applied to a line headed by its entry.
UniProt P42338: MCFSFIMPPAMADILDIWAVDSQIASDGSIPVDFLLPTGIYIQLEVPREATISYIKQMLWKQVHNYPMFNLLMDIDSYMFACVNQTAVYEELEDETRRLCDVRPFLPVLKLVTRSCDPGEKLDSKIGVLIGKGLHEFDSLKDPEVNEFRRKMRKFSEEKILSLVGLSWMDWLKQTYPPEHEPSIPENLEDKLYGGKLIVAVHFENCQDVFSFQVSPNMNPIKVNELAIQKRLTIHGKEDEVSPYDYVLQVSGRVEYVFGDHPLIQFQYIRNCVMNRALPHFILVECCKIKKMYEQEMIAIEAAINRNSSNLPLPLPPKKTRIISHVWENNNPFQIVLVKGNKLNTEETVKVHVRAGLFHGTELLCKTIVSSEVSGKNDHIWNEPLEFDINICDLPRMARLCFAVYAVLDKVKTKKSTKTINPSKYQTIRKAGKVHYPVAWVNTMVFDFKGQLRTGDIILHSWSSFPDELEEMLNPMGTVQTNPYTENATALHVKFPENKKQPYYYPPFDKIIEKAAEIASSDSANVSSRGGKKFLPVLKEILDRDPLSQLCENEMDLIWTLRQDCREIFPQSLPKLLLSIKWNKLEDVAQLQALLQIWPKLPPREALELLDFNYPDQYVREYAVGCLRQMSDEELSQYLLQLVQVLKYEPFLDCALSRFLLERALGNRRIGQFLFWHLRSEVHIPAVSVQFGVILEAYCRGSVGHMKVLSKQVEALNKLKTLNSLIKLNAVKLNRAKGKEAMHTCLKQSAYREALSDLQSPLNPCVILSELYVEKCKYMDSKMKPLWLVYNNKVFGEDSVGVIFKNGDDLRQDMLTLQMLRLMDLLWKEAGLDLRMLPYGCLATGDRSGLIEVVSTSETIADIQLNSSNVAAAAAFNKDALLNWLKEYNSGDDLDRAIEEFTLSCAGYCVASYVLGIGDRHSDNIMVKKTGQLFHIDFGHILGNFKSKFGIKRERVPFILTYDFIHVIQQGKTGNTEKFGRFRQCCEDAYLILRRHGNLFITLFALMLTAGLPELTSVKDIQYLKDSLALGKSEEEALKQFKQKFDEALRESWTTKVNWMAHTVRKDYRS

For the assay, the target named is PI3Kβ (complex of human p110β and human p85α) (Homo sapiens (Human), UniProt P42338). Description: PI3Kβ kinase assay (HTRF-based PI3K inhibition assay). The conditions noted are these: 10 μM ATP, 10 μM PIP2, 20 min at 22° C.; read-out: average IC50 in the PI3K beta biochemical assay. An excerpt:
Determination of % Inhibition and IC50 Values of Compounds in PI3Kα Kinase Assay
PI3Kα inhibitory activity of compounds of the present invention was quantified employing the HTRF based PI3K inhibition assay as described below.
As reagents for the kinase reaction itself and the quantification of the reaction product, the PI3-Kinase HTRF Assay kit from Millipore (#33-017) was used. With this kit the phosphatidylinositol 3,4,5-trisphosphate (PIP3) generated in the kinase reaction is detected by displacement of a biotinylated ligand from an energy transfer complex consisting of a Europium-labeled anti-GST monoclonal antibody, a GST-tagged PH domain, biotinylated PIP3 and Streptavidin-Allophycocyanin (APC). As kinase a complex of N-terminal His6-tagged recombinant full-length human p110β and untagged, recombinant, full length, human p85α, coexpressed by baculovirus infected Sf21 insect cells and purified using Ni^2+/NTA-agarose, was used (Millipore product #14-603). […]
The reaction was stopped by the addition of 1 μL of an stop solution (containing the biotinylated PIP3 used as a tracer). […] Subsequently the amount of energy transfer complex consisting of a Europium-labeled anti-GST monoclonal antibody, a GST-tagged PH domain, biotinylated PIP3 and Streptavidin-Allophycocyanin (APC) was evaluated by measurement of the resonance energy transfer from the Europium-labeled anti-GST monoclonal antibody to the Streptavidin-Allophycocyanin. Therefore, the fluorescence emissions at 620 nm and 665 nm after excitation at 350 nm were measured using a TR-FRET reader, e.g., a Pherastar (BMG Labtechnologies, Offenburg, Germany) or a Viewlux (Perkin-Elmer). […]
In the case of `COc1c(OCC(O)CN2CCOCC2)ccc2c1N=C(NC(=O)c1cccnc1)N1CCN=C21` (stereo not drawn) [Comparative Example 1, N-{8-[2-hydroxy-3-(morpholin-4-yl)propoxy]-7-methoxy-2,3-dihydroimidazo[1,2-c]quinazolin-5-yl}pyridine-3-carboxamide, reference compound], the IC50 is greater than 50 nM. Consider `COc1c(OC[C@H](O)CN2CCOCC2)ccc2c1N=C(NC(=O)c1cccnc1)N1CCN=C21` [Example 2, N-(8-{[(2R)-2-hydroxy-3-(morpholin-4-yl)propyl]oxy}-7-methoxy-2,3-dihydroimidazo[1,2-c]quinazolin-5-yl)pyridine-3-carboxamide], for which the IC50 was in the range of 10 to 50 nM.

On to `COc1c(OC[C@@H](O)CN2CCOCC2)ccc2c1N=C(NC(=O)c1cccnc1)N1CCN=C21` [Example 3, N-(8-{[(2S)-2-hydroxy-3-(morpholin-4-yl)propyl]oxy}-7-methoxy-2,3-dihydroimidazo[1,2-c]quinazolin-5-yl)pyridine-3-carboxamide], for which the IC50 was greater than 50 nM.
